Reference: ChEMBL document CHEMBL2029285, “Structure-based design of novel class II c-Met inhibitors: 1. Identification of pyrazolone-based derivatives” (J Med Chem, 2012)

Experiments:
[1] = biological target: T1, Hepatocyte growth factor receptor (Homo sapiens, UniProt P08581); assay: Inhibition of recombinant c-met-mediated gastrin phosphorylation by HTRF assay
[2] = biological target: T1, Hepatocyte growth factor receptor; assay: Inhibition of HGF-mediated c-met autophosphorylation in serum-starved human PC3 cells after 1 hr by electrochemiluminescent immunoassay; assay type: cell-based, PC-3

With `COc1cc2nccc(Oc3ccc(NC(=O)c4c(C)n(C)n(-c5ccccc5)c4=O)cc3F)c2cc1OC` the Ki [1] was 1 nM and the IC50 [2] was 20 nM.
